Experimental data from patent US9718817B2, “Aryl and heteroaryl ether compounds as ROR gamma modulators” (Glenmark Pharmaceuticals S.A., priority 2014, dated 2017).

Chains of the proteins cited; added tags and fusions are not shown. Residues count along the entry.
UniProt P51449, 269-508 limits assumed: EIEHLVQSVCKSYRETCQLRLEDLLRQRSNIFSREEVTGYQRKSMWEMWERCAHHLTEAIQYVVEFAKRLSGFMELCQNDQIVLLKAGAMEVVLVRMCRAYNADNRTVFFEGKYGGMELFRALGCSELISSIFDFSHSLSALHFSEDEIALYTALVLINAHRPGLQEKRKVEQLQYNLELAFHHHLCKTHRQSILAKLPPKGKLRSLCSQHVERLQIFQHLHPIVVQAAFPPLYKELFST

Biological target: GST-tagged ROR gamma ligand binding domain (LBD) (Homo sapiens, UniProt P51449)
Assay: TR-FRET assay for ROR gamma (LanthaScreen co-activator peptide recruitment)

## CCS(=O)(=O)c1ccc(CC(=O)Nc2ccc3c(c2)nc(C(C)(C)Oc2ccc(F)cc2F)n3C)cc1
Compound 1 μM, TR-FRET ratio 520/495, percent of control
  % Inhibition at 1 μM: 82.41%
Compound 10 μM, TR-FRET ratio 520/495, percent of control
  % Inhibition at 10 μM: 87.38%
read-out: IC50 value, class symbols, from dose response curve
  IC50: 50 to 100 nM
